Laboratory results published in ChEMBL document CHEMBL2417373, “Substituted tetrahydroisoquinolines as selective antagonists for the orexin 1 receptor” (J Med Chem, 2013).

The chains behind the UniProt entries cited, without tags or fusion partners.
UniProt O43613, whole entry: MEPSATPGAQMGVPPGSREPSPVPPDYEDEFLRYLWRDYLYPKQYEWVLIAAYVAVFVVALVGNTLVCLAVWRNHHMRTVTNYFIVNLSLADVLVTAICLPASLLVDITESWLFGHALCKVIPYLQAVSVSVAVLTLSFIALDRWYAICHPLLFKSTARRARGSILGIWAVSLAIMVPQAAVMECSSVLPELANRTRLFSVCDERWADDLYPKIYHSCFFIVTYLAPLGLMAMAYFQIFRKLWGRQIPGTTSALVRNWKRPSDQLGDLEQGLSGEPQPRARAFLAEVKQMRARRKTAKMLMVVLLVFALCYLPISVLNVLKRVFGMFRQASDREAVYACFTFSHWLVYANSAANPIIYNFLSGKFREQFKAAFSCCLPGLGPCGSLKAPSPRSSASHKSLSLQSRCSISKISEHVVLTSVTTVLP

Target: Orexin/Hypocretin receptor type 1 (Homo sapiens, UniProt O43613)
Assay: Antagonist activity at OX1 receptor (unknown origin)

IC50: 119 nM
SMILES: CNC(=O)[C@@H](c1ccccc1)N1CCc2cc(OC)c(OC)cc2[C@@H]1CCc1ccc(C(F)(F)F)cc1 [ALMOREXANT]
